From IntAct's records for PubMed 23178593

B1: X-ray repair cross-complementing protein 5 (Homo sapiens), P13010 (parent)
chain: MVRSGNKAAVVLCMDVGFTMSNSIPGIESPFEQAKKVITMFVQRQVFAENKDEIALVLFGTDGTDNPLSGGDQYQNITVHRHLMLPDFDLLEDIESKIQPGSQQADFLDALIVSMDVIQHETIGKKFEKRHIEIFTDLSSRFSKSQLDIIIHSLKKCDISLQFFLPFSLGKEDGSGDRGDGPFRLGGHGPSFPLKGITEQQKEGLEIVKMVMISLEGEDGLDEIYSFSESLRKLCVFKKIERHSIHWPCRLTIGSNLSIRIAAYKSILQERVKKTWTVVDAKTLKKEDIQKETVYCLNDDDETEVLKEDIIQGFRYGSDIVPFSKVDEEQMKYKSEGKCFSVLGFCKSSQVQRRFFMGNQVLKVFAARDDEAAAVALSSLIHALDDLDMVAIVRYAYDKRANPQVGVAFPHIKHNYECLVYVQLPFMEDLRQYMFSSLKNSKKYAPTEAQLNAVDALIDSMSLAKKDEKTDTLEDLFPTTKIPNPRFQRLFQCLLHRALHPREPLPPIQQHIWNMLNPPAEVTTKSQIPLSKIKTLFPLIEAKKKDQVTAQEIFQDNHEDGPTAKKLKTEQGGAHFSVSSLAEGSVTSVGSVNPAENFRVLVKQKKASFEEASNQLINHIEQFLDTNETPYFMKSIDCIRAFREEAIKFSEEQRFNNFLKALQEKVEIKQLNHFWEIVVQDGITLITKEEASGSSVTAEEAKKFLAPKDKPSGDTAAVFEEGGDVDDLLDMI
partner: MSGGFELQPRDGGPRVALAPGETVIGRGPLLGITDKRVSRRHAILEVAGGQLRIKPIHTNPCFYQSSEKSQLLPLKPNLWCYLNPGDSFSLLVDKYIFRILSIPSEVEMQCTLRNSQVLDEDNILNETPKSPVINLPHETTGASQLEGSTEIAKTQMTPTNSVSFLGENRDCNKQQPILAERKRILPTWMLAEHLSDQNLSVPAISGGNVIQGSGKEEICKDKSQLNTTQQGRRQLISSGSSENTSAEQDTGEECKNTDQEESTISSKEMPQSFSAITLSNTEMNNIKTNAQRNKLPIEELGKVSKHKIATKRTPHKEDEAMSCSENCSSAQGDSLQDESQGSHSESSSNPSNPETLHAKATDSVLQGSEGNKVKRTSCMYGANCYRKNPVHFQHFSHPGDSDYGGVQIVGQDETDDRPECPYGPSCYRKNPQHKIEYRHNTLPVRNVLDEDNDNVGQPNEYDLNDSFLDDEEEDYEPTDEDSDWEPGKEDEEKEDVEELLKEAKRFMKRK

Variants of: B1
Conditions: with aplf_human APLF

| Variant | effect of a mutation on the interaction |
| --- | --- |
| L68R | disrupting interaction |

Variants of: B1
Conditions: with aplf_human APLF
Remark: another data set of the same source

| Variant | effect of a mutation on the interaction |
| --- | --- |
| Y74R | disrupting interaction |

Variants of: B1
Conditions: with aplf_human APLF
Remark: another data set of the same source

| Variant | effect of a mutation on the interaction |
| --- | --- |
| I112R | disrupting interaction |

Variants of: B1
Conditions: with aplf_human APLF
Remark: another data set of the same source

| Variant | effect of a mutation on the interaction |
| --- | --- |
| L169R | decreasing interaction |
